For 20 compounds, inhibition results are on record in PubChem BioAssay AID504441 (Broad Institute, 2011).

Broadly, the inhibition is the change of the read-out against control, counted positive when it falls.

This is a selection; strong and weak results do not stand in their true shares. Active and inactive are the calls of the source. No stated cut-off is given here; in the data, active means inhibition above about 50%; inactive means the rest.

The experiment concerns the target Dual specificity tyrosine-phosphorylation-regulated kinase 1A (Rattus norvegicus) (UniProt Q63470). Put plainly: inhibition of Dyrk1A kinase activity – biochemical, single point, plate reader, primary screen (AID 504441).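 Further: plate controls were vehicle with enzyme for no effect and no enzyme for full effect.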 The conditions noted are these: ADP-Glo luminescence, NFATc1 peptide, at 12.5 µM, active compounds read high. For orientation: ADP-Glo turns the ADP formed in a reaction into a luminescent signal.
As to `CC1=NCCc2c1[nH]c1ccccc21.O=[N+]([O-])c1cc([N+](=O)[O-])c(O)c([N+](=O)[O-])c1`, the inhibition is inactive: 0.41%.

As to `O=C(O)c1cccc(Nc2c([N+](=O)[O-])cc([N+](=O)[O-])cc2[N+](=O)[O-])c1`, the inhibition was inactive: 10.3%.

`Cc1ccc(C)c(NP(C)(=O)Oc2ccccc2)c1` (stereo not given): the inhibition is inactive: -0.589%.

For `CP(=O)(Nc1cccc(Br)c1)Oc1ccccc1` (stereo not given), the inhibition is inactive: -2.2%.

For the compound `Cc1cc(C)cc(OP(C)(=O)Nc2ccccn2)c1` (stereo not given), the inhibition was inactive: 0.892%.

Consider `CCOC(=O)c1ccc(NP(C)(=O)Oc2cc(C)cc(C)c2)cc1` (stereo not given), for which the inhibition is inactive: 3.61%.

As to `Cc1cc(C)cc(OP(C)(=O)Nc2ccc(C)cc2C)c1` (stereo not given), the inhibition is inactive: 19.9%.

Turning to `COc1ccccc1OP(C)(=O)Nc1cccc(Br)c1` (stereo not given), the inhibition was inactive: 7.72%.

For `Cc1nc2ccc3ccccc3c2s1.O=[N+]([O-])c1cc([N+](=O)[O-])c(O)c([N+](=O)[O-])c1`, the inhibition is inactive: -7.42%.

For `O=[N+]([O-])c1cc([N+](=O)[O-])c(-c2cnn(-c3ccccc3)c2)c([N+](=O)[O-])c1`, the inhibition was inactive: 6.8%.

Regarding `O=[N+]([O-])c1cc([N+](=O)[O-])c(-n2nnc3ccccc32)c([N+](=O)[O-])c1`, the inhibition was inactive: -1.46%.

On to `CP(=O)(Nc1ccc(SC(F)(F)F)cc1)Oc1ccccc1` (stereo not given), for which the inhibition is inactive: -3.16%.

For the compound `CCCOc1ccc(NP(C)(=O)Oc2ccc(Cl)cc2)cc1` (stereo not given), the inhibition was inactive: 1.67%.

Turning to `CN1CCCCC1COC(=O)C1(O)c2ccccc2CCc2ccccc21` (stereo not given), the inhibition was inactive: -1.36%.

With `COc1ccccc1OP(C)(=O)Nc1c(C)cccc1C` (stereo not given), the inhibition was inactive: -1.63%.

Take `CCOC(=O)C(CC)C1=NC(C)(C)Cc2ccccc21.O=[N+]([O-])c1cc([N+](=O)[O-])c(O)c([N+](=O)[O-])c1` (stereo not given): the inhibition was inactive: -3.28%.

As for `O=[N+]([O-])c1cc([N+](=O)[O-])c(Nc2nnnn2CCO)c([N+](=O)[O-])c1`, the inhibition is inactive: -4.63%.

In the case of `CC1=C2N=C(C=C3N=C(C(C)=C4[N-][C@@](C)([C@@H]5N=C1[C@](C)(CCC(=O)NC[C@@H](C)OP(=O)([O-])O[C@H]1[C@@H](O)[C@@H](n6cnc7cc(C)c(C)cc76)O[C@@H]1CO)[C@H]5CC(N)=O)[C@@](C)(CC(N)=O)[C@@H]4CCC(N)=O)[C@@](C)(CC(N)=O)[C@@H]3CCC(N)=O)C(C)(C)[C@@H]2CCC(N)=O.[C-]#N.[Co+3]`, the inhibition was inactive: 30.8%.

In the case of `CP(=O)(Nc1ccccc1Br)Oc1ccccc1` (stereo not given), the inhibition was inactive: -6.26%.

In the case of `COc1ccccc1OP(C)(=O)Nc1ccccc1` (stereo not given), the inhibition is inactive: -0.316%.
